The text below walks through data of ChEMBL document CHEMBL1135196, “4-Aminoarylguanidine and 4-aminobenzamidine derivatives as potent and selective urokinase-type plasminogen activator inhibitors” (Bioorg Med Chem Lett, 2002).

For this test, the target named is Urokinase-type plasminogen activator (Homo sapiens, UniProt P00749).

Usually Ki stands for the equilibrium dissociation constant of an inhibitor or competing ligand from its target. The low end stands for a stronger hold on the target, the high end for a looser hold on the target. Regarding `N=C(N)c1ccc(NC(=O)c2cc(Br)ccc2O)cc1`, the affinity corresponds to a Ki of 8 µM.
